Assay results published in BindingDB's records for doi:10.1038/nbt1059 (Plexxikon, 2005).

Target: cAMP-specific 3',5'-cyclic phosphodiesterase 4D [372-376,381-715,S375G,I381V,S383G,G384S,V385H,K386M) (Homo sapiens, UniProt Q08499, S375G/I381V/S383G/G384S/V385H/K386M)
Test: Phosphodiesterase (PDE) Inhibition Assay
Description: Phosphodiesterase activities were assayed in the presence of inhibitor compounds. Measurement takes advantage of the selective binding of 5-AMP or 5-GMP (and not cAMP or cGMP) to yttrium silicate beads with embedded scintillant. Hydrolysis is quantified by reading in a scintillation counter (Trilux, Wallac). The cAMP and cGMP concentrations used were far below the Km of PDE.

- IC50: 0.27 µM
SMILES: CCOC(=O)c1c(C)nn(-c2ccccc2)c1C [ethyl 3,5-dimethyl-1-phenyl-1H-pyrazole-4-carboxylate]
